{
  "sequences": {"note": "By UniProt entry, the sequences of proteins in these tests, tags left out.", "UniProt P31652, whole entry": "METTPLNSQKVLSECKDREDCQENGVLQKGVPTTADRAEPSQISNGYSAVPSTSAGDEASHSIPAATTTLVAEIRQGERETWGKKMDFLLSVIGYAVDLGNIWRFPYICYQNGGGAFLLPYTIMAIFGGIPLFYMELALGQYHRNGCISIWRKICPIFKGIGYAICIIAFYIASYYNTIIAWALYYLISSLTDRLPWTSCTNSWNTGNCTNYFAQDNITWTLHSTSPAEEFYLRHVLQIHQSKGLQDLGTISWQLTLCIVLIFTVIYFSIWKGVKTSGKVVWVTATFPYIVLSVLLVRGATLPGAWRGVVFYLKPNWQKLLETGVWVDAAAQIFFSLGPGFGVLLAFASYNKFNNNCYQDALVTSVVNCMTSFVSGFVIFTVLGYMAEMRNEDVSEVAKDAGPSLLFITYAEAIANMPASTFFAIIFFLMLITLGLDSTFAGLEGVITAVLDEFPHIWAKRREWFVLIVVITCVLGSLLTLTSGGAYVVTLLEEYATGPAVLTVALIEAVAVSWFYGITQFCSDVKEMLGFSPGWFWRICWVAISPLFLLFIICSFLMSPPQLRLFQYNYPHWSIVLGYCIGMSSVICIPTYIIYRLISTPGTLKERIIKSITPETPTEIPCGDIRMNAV"},
  "source": "BindingDB's records for PubMed 10336510",
  "about": "(Virginia Commonwealth University, 1999)",
  "target": "Sodium-dependent serotonin transporter (Rattus norvegicus, UniProt P31652)",
  "data": [
    {"smiles": "COC(=O)[C@H]1[C@@H](c2ccccc2)C[C@@H]2CC[C@H]1N2C", "note": "[methyl (1R,2S,3S,5S)-8-methyl-3-phenyl-8-azabicyclo[3.2.1]octane-2-carboxylate]", "values": [
      {"measurement": "Ki", "value": 1960, "unit": "nM"}
    ]}
  ]
}
